Results on 3 compounds are retold here after ChEMBL document CHEMBL1144548, “Dioxane and oxathiane nuclei: suitable substructures for muscarinic agonists” (Bioorg Med Chem, 2007).

Sequences of proteins named here, by UniProt entry; tags and fusion partners are left off.
UniProt P20309, whole entry: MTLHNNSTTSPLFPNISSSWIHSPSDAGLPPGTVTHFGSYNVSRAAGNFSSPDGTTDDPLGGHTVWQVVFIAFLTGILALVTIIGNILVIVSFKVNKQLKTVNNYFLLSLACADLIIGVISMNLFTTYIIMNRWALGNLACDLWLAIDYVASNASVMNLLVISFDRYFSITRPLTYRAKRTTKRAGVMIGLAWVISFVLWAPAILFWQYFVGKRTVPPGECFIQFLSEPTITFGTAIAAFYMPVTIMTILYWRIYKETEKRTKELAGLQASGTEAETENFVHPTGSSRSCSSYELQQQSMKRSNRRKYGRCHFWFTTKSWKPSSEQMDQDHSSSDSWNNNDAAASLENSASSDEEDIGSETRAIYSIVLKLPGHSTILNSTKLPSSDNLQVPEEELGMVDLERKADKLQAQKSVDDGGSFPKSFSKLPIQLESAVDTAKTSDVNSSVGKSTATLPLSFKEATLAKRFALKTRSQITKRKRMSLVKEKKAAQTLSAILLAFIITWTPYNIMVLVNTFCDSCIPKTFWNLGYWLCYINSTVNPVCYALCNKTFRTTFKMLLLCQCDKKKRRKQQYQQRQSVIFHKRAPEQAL

SMILES strings stand for the structures.

For orientation: EC50 means the midpoint of the concentration-response curve.

The test concerns the target Muscarinic acetylcholine receptor M3 (Homo sapiens, UniProt P20309). The format is functional, cell-based, CHO.
Consider `CC1COCC(C[N+](C)(C)C)O1` (racemic; form 2), for which the EC50 was 56200 nM.

`CC1COCC(C[N+](C)(C)C)O1` (racemic; form 1) gave a concentration giving a half-maximal response (EC50) of 275 nM.

On to `C[C@H]1COC[C@@H](C[N+](C)(C)C)O1`, for which the EC50 was 407 nM. The EC50 values of the last two compounds are within 1.5-fold of each other.
